Key:
[1] = test system: Lys(Dnp)-ATNATGNPRIVGG-Lys(Abz)
[2] = test system: Lys(Dnp)-ATNATQDPRIVGG-Lys(Abz)
[3] = test system: Lys(Dnp)-ATNATKYPRIVGG-Lys(Abz)
[4] = test system: Lys(Dnp)-ATNATWQPRIVGG-Lys(Abz)
[5] = test system: Lys(Dnp)-ATNATX4X3PRIVGG-Lys(Abz), X4 = N, X3 = Q
[6] = test system: Lys(Dnp)-NLAKPTLPIKIVGG-Lys(Abz)
[7] = test system: Lys(Dnp)-ATNATDPPRIVGG-Lys(Abz)
[8] = test system: Lys(Dnp)-ATNATX4X3PRIVGG-Lys(Abz), X4 = T, X3 = F
[9] = test system: Lys(Dnp)-ATNATPKPRIVGG-Lys(Abz)
[10] = test system: Lys(Dnp)-ATNATFKPRIVGG-Lys(Abz)
[11] = test system: Lys(Dnp)-ATNATGVPRIVGG-Lys(Abz)
[12] = test system: Lys(Dnp)-ATNATTIPRIVGG-Lys(Abz)
[13] = test system: Lys(Dnp)-SEYQTFFNPRIVGG-Lys(Abz)
[14] = test system: Lys(Dnp)-ATNATSAPRIVGG-Lys(Abz)
[15] = test system: Lys(Dnp)-ATNATIWPRIVGG-Lys(Abz)
[16] = test system: Lys(Dnp)-ATNATWVPRIVGG-Lys(Abz)
[17] = test system: Lys(Dnp)-ATNATLFPRIVGG-Lys(Abz)
[18] = test system: Lys(Dnp)-ATNATDAPRIVGG-Lys(Abz)
[19] = test system: Lys(Dnp)-ATNATX4X3PRIVGG-Lys(Abz), X4 = Y, X3 = D
[20] = test system: Lys(Dnp)-ATNATPAPRIVGG-Lys(Abz)
[21] = test system: Lys(Dnp)-ATNATGQPRIVGG-Lys(Abz)
[22] = test system: Lys(Dnp)-KATNATLDPRIVGG-Lys(Abz)
[23] = test system: Lys(Dnp)-ATNATX4X3PRIVGG-Lys(Abz), X4 = S, X3 = D
[24] = test system: Lys(Dnp)-ATNATYNPRIVGG-Lys(Abz)
[25] = test system: Lys(Dnp)-ATNATTVPRIVGG-Lys(Abz)
[26] = test system: Lys(Dnp)-ATNATPPPRIVGG-Lys(Abz)
[27] = test system: Lys(Dnp)-ATNATSIPRIVGG-Lys(Abz)
[28] = test system: Lys(Dnp)-ATNATFRPRIVGG-Lys(Abz)
[29] = test system: Lys(Dnp)-ATNATX4X3PRIVGG-Lys(Abz), X4 = Y, X3 = E
[30] = test system: Lys(Dnp)-ATNATRPPRIVGG-Lys(Abz)
[31] = test system: Lys(Dnp)-ATNATTDPRIVGG-Lys(Abz)
[32] = test system: Lys(Dnp)-ATNATX4X3PRIVGG-Lys(Abz), X4 = N, X3 = Y
[33] = test system: Lys(Dnp)-ATNATWRPRIVGG-Lys(Abz)
[34] = test system: Lys(Dnp)-ATNATLWPRIVGG-Lys(Abz)
[35] = test system: Lys(Dnp)-ATNATFAPRIVGG-Lys(Abz)
[36] = test system: Lys(Dnp)-ATNATLQPRIVGG-Lys(Abz)
[37] = test system: Lys(Dnp)-ATNATX4X3PRIVGG-Lys(Abz), X4 = T, X3 = V
[38] = test system: Lys(Dnp)-ATNATVYPRIVGG-Lys(Abz)
[39] = test system: Lys(Dnp)-ATNATARPRIVGG-Lys(Abz)
[40] = test system: Lys(Dnp)-ATNATFQPRIVGG-Lys(Abz)
[41] = test system: Lys(Dnp)-ATNATGPPRIVGG-Lys(Abz)
[42] = test system: Lys(Dnp)-ATNATAMPRIVGG-Lys(Abz)
[43] = test system: Lys(Dnp)-ATNATIIPRIVGG-Lys(Abz)
[44] = test system: Lys(Dnp)-ATNATFPPRIVGG-Lys(Abz)

## Human plasma purified alpha-thrombin
[1]
  FIIa kcat/KM: 700 M⁻¹ s⁻¹
  Specificity Ratio (FIIa/FXa): 14
[2]
  FIIa kcat/KM: 500 M⁻¹ s⁻¹
  Specificity Ratio (FIIa/FXa): 1
[3]
  FIIa kcat/KM: 700 M⁻¹ s⁻¹
  Specificity Ratio (FIIa/FXa): 19

## Human plasma purified α-thrombin
[4]
  FIIa kcat/KM: 19000 M⁻¹ s⁻¹
  Functional Selectivity (Specificity*FIIa kcat/KM): 9.8e+06
  kcat/KM: 19000 M⁻¹ s⁻¹
[5]
  FIIa kcat/KM: 740 M⁻¹ s⁻¹
  Specificity Ratio (FIIa/FXa): 28
[6]
  FIIa kcat/KM: 16 M⁻¹ s⁻¹
  Functional Selectivity (Specificity*FIIa kcat/KM): 88
  Specificity Ratio (FIIa/FXa): 5
  kcat/KM: 16 M⁻¹ s⁻¹
[7]
  FIIa kcat/KM: 0.00066 M⁻¹ s⁻¹
  Functional Selectivity (Specificity*FIIa kcat/KM): 2.8e-07
  Specificity Ratio (FIIa/FXa): 0
  kcat/KM: 0.00066 M⁻¹ s⁻¹
[8]
  FIIa kcat/KM: 640 M⁻¹ s⁻¹
  Specificity Ratio (FIIa/FXa): 29
[9]
  FIIa kcat/KM: 9400 M⁻¹ s⁻¹
  Functional Selectivity (Specificity*FIIa kcat/KM): 1.2e+06
  kcat/KM: 9400 M⁻¹ s⁻¹
[10]
  FIIa kcat/KM: 25000 M⁻¹ s⁻¹
  Functional Selectivity (Specificity*FIIa kcat/KM): 1.2e+07
  kcat/KM: 25000 M⁻¹ s⁻¹
[11]
  kcat/KM: 1200 M⁻¹ s⁻¹
[12]
  kcat/KM: 1200 M⁻¹ s⁻¹
[13]
  FIIa kcat/KM: 20000 M⁻¹ s⁻¹
  Functional Selectivity (Specificity*FIIa kcat/KM): 2.8e+06
  Specificity Ratio (FIIa/FXa): 141
[14]
  kcat/KM: 790 M⁻¹ s⁻¹
[15]
  FIIa kcat/KM: 33000 M⁻¹ s⁻¹
  Functional Selectivity (Specificity*FIIa kcat/KM): 720000
  kcat/KM: 33000 M⁻¹ s⁻¹
[16]
  FIIa kcat/KM: 3900 M⁻¹ s⁻¹
  Specificity Ratio (FIIa/FXa): 46
  kcat/KM: 3900 M⁻¹ s⁻¹
[17]
  FIIa kcat/KM: 15000 M⁻¹ s⁻¹
  Functional Selectivity (Specificity*FIIa kcat/KM): 2.3e+06
  kcat/KM: 15000 M⁻¹ s⁻¹
[18]
  kcat/KM: 7.7 M⁻¹ s⁻¹
[19]
  FIIa kcat/KM: 890 M⁻¹ s⁻¹
  Specificity Ratio (FIIa/FXa): 24
[20]
  FIIa kcat/KM: 7000 M⁻¹ s⁻¹
  Specificity Ratio (FIIa/FXa): 40
[21]
  kcat/KM: 1400 M⁻¹ s⁻¹
[22]
  kcat/KM: 3900 M⁻¹ s⁻¹
[23]
  FIIa kcat/KM: 740 M⁻¹ s⁻¹
  Specificity Ratio (FIIa/FXa): 72
[24]
  FIIa kcat/KM: 2200 M⁻¹ s⁻¹
  Specificity Ratio (FIIa/FXa): 44
  kcat/KM: 2200 M⁻¹ s⁻¹
[25]
  kcat/KM: 980 M⁻¹ s⁻¹
[26]
  kcat/KM: 850 M⁻¹ s⁻¹
[27]
  kcat/KM: 1100 M⁻¹ s⁻¹
[28]
  FIIa kcat/KM: 43000 M⁻¹ s⁻¹
  Functional Selectivity (Specificity*FIIa kcat/KM): 4.4e+06
  kcat/KM: 43000 M⁻¹ s⁻¹
[29]
  FIIa kcat/KM: 1700 M⁻¹ s⁻¹
  Specificity Ratio (FIIa/FXa): 31
[30]
  FIIa kcat/KM: 2800 M⁻¹ s⁻¹
  Functional Selectivity (Specificity*FIIa kcat/KM): 1.1e+06
  kcat/KM: 2800 M⁻¹ s⁻¹
[31]
  FIIa kcat/KM: 1000 M⁻¹ s⁻¹
  Specificity Ratio (FIIa/FXa): 91
[32]
  FIIa kcat/KM: 780 M⁻¹ s⁻¹
  Specificity Ratio (FIIa/FXa): 52
[33]
  FIIa kcat/KM: 23000 M⁻¹ s⁻¹
  Functional Selectivity (Specificity*FIIa kcat/KM): 640000
  kcat/KM: 23000 M⁻¹ s⁻¹
[34]
  FIIa kcat/KM: 36000 M⁻¹ s⁻¹
  Functional Selectivity (Specificity*FIIa kcat/KM): 1.3e+06
  kcat/KM: 36000 M⁻¹ s⁻¹
[35]
  FIIa kcat/KM: 8900 M⁻¹ s⁻¹
  Specificity Ratio (FIIa/FXa): 68
  kcat/KM: 8900 M⁻¹ s⁻¹
[36]
  FIIa kcat/KM: 49000 M⁻¹ s⁻¹
  Functional Selectivity (Specificity*FIIa kcat/KM): 2e+06
  kcat/KM: 49000 M⁻¹ s⁻¹
[37]
  FIIa kcat/KM: 980 M⁻¹ s⁻¹
  Specificity Ratio (FIIa/FXa): 50
[38]
  FIIa kcat/KM: 11000 M⁻¹ s⁻¹
  Functional Selectivity (Specificity*FIIa kcat/KM): 2e+06
  kcat/KM: 11000 M⁻¹ s⁻¹
[39]
  Functional Selectivity (Specificity*FIIa kcat/KM): 1.1e+06
[40]
  Functional Selectivity (Specificity*FIIa kcat/KM): 3.5e+06
[41]
  kcat/KM: 430 M⁻¹ s⁻¹
[42]
  FIIa kcat/KM: 9000 M⁻¹ s⁻¹
  Specificity Ratio (FIIa/FXa): 20
[43]
  FIIa kcat/KM: 26000 M⁻¹ s⁻¹
  Functional Selectivity (Specificity*FIIa kcat/KM): 1.4e+06
  kcat/KM: 26000 M⁻¹ s⁻¹
[44]
  FIIa kcat/KM: 730 M⁻¹ s⁻¹
  Specificity Ratio (FIIa/FXa): 118
  kcat/KM: 730 M⁻¹ s⁻¹

Reference: patent publication US20160024487
